By EC50 is commonly meant the concentration at which the effect is half-maximal.

Amino acid sequences for entries named in this document (tags omitted). Residues count along the entry.
UniProt Q07869, 167-468 limits assumed: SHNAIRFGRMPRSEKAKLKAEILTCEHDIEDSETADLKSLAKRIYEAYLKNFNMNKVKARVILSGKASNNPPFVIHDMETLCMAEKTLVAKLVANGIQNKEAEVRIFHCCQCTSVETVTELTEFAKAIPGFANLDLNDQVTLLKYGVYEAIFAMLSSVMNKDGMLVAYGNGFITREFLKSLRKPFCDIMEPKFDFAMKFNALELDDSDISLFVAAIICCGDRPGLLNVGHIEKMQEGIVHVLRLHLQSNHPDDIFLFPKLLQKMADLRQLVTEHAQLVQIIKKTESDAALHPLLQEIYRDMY
UniProt P37231, 193-505 limits assumed: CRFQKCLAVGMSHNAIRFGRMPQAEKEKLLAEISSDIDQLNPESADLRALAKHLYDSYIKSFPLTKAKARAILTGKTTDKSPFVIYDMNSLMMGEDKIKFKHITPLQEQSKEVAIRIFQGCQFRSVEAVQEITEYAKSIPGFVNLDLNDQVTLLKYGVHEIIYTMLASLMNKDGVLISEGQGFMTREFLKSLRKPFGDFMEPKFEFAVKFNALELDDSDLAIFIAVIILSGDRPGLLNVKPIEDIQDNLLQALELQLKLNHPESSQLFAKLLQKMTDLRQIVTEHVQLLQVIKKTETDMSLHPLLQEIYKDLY

The results in this text go back to patent US7202213B2 (Novo Nordisk A/S, priority 2000, dated 2007).

One assay concerns the target human PPAR α (Homo sapiens, UniProt Q07869). Nature of the assay: In vitro PPAR alpha transactivation assay (GAL4-DBD-PPAR-LBD luciferase reporter in HEK293 cells). The class given is cell-based. On the technique in general: In a reporter assay the amount or activity of a reporter protein is the signal.
The next assay addresses human PPAR γ (Homo sapiens, UniProt P37231). Nature of the assay: In vitro PPAR gamma transactivation assay (GAL4-DBD-PPAR-LBD luciferase reporter in HEK293 cells). The assay is classed as cell-based.

Take `CCO[C@@H](Cc1ccc(OC/C=C(\C)C#Cc2ccccc2)cc1)C(=O)O`: at human PPAR α (fold activation relative to maximum activation obtained with Wy14643 (approx. 20 fold corresponded to 100%)), the “In vitro activation PPAR α % max” value is 217%. Also, the EC50 on human PPAR α (read-out: In vitro activation PPAR α EC50, HEK293 cells, 24 h with compound, five concentrations 0.01 to 30 μM, means of at least three experiments) was found to be 200 nM; on human PPAR γ (read-out: In vitro activation PPAR γ EC50, HEK293 cells, 24 h with compound, five concentrations 0.01 to 30 μM, means of at least three experiments) it was 700 nM. Moreover, the “In vitro activation PPAR γ % max” value on human PPAR γ (fold activation relative to maximum activation obtained with rosiglitazone (approx. […] fold corresponded to 100%)) was 108%.
